Molecular target: reduced insulin (human recombinant insulin after addition of 20 mM DTT) (human) (UniProt P01308)

Sequences of proteins named here, by UniProt entry; tags and fusion partners are left off. Residues count along the entry.
UniProt P01308, 25-54, chain 1 of 2: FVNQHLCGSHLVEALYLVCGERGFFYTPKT
UniProt P01308, 90-110, chain 2 of 2: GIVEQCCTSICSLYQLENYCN

C0.5: α-crystallin concentration at which Kagg/Kagg,0 = 0.5 in DTT-induced aggregation of insulin at 0.32 mg/mL: 0.4 mg/mL
C0.5: α-crystallin concentration at which Kagg/Kagg,0 = 0.5 in DTT-induced aggregation of insulin at 0.4 mg/mL: 0.62 mg/mL
Substance: α-crystallin (from UniProt P02470 1-173; P02510 1-175) (complex)
